The target of the assay is Retinoic acid receptor alpha (Mus musculus) (UniProt P11416). The assay can be described thus: Transactivation of mouse Gal4-fused RARalpha-LBD expressed in COS-7 cells after 1 day by bright-Glo reagent based assay relative to control ATRA. It counts as cell-based.

Chains of the proteins cited; added tags and fusions are not shown.
UniProt P11416, whole entry: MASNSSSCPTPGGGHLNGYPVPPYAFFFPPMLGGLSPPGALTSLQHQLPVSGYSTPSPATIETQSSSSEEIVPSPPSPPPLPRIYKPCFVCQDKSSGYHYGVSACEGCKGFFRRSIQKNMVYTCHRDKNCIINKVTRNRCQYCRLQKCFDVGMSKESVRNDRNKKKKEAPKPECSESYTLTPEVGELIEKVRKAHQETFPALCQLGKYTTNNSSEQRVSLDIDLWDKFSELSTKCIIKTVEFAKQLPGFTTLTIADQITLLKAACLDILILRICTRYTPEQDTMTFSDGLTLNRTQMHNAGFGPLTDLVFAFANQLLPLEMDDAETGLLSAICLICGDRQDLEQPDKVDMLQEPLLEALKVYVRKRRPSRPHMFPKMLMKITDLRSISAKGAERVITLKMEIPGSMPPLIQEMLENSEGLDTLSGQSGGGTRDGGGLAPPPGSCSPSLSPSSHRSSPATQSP

Turning to `CCOc1c(Cl)cc(C(=O)Nc2ccc(C(=O)O)c(C)c2)cc1Cl`, the Ratio EC50 was determined as 0.9.
